According to BindingDB's records for doi:10.1021/jm9508853 (University of Maryland, 2021):

Molecular target: B-cell lymphoma 6 protein (Homo sapiens, UniProt P41182)
Experiment: Inhibition of human BCL6 BTP domain measured by TR-FRET assay

## Cn1c(=O)n(C)c2cc(Nc3ccnc(Cl)c3C#N)ccc21
  IC50: 3.4 µM
